This passage reports IRF (immunoreactive fraction) results from patent EP4279092A1.

The assay addresses prostate-specific membrane antigen (PSMA), coated on M-270-carboxy Dynabeads (human) (UniProt Q04609). Put plainly: radioligand binding to PSMA-coated M-270-carboxy Dynabeads, unspecific binding from samples blocked with excess naked PSMA mAb subtracted.
“Ac-225-macropa-Pelgifatamab (CAR 0.8) (antibody)” displayed an IRF (immunoreactive fraction) of 95%.
On to “Ac-225-DOTA-Pelgifatamab CAR 12.7 (antibody)”, for which the IRF (immunoreactive fraction) came to 74%.
For “Ac-225-DOTA-Pelgifatamab CAR 5.7 (antibody)” the value was 92%.
